Earlier results, collected in paper PMC8875242, “Evaluation of the Potency of Anti-HIV and Anti-HCV Drugs to Inhibit P-Glycoprotein Mediated Efflux of Digoxin in Caco-2 Cell Line and Human Precision-Cut Intestinal Slices” (Pharmaceuticals, 2022).

Details: healthy volunteers; cited from earlier work

Q: Which “Total exposure to digoxin in the presence of the drug” value does the source give for maraviroc here?
A: unaffected
